The list shows a part of the results, in another mix than the full data. Active and inactive are the calls of the source.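 How the source made its calls: active means fluorescent GTP binding to Rab7 beads changed by at least 20 points from the 100% baseline, either direction, mostly lower; inconclusive means compound itself probably fluorescent, or too few beads counted; inactive means the rest.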

In this assay the test system is Rab7 GTPase wild type (dog), Bodipy-FL-GTP binding. Briefly: modulators of GTP binding to Rab7, primary screen, biochemical, wildtype, multiplex bead flow cytometry (AID 758).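 Further: median green fluorescence of bound Bodipy-FL-GTP per Rab7 bead population.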 To be noted: GST-Rab7 beads, fluorescent GTP binding, at 10 µM, actives lie on both sides, untreated = 100%, excess cold GTP = 0%.
In the case of `CCOC(=O)N1CCC(Nc2ccc(OC)cc2)CC1`, the GTP binding activity (percent of control) is inactive: 106%.
For the molecule `O=C(OC1CN2CCC1CC2)C1c2ccccc2Oc2ccccc21` (centres undefined), the GTP binding activity (percent of control) was inactive: 98%.
Next, `O=C(NCC1(N2CCOCC2)CCCCC1)c1cc2ccccc2o1`: inactive: 96%; `COc1ccc(C(=O)NCC2(N3CCCCC3)CCCCC2)c(OC)c1OC`: inactive: 98%.
On to `COc1ccc(NC2CCN(CCc3ccccc3)CC2)c(OC)c1`, for which the GTP binding activity (percent of control) is inactive: 98%.
`COc1ccc(NC2CCN(C(=O)OC(C)(C)C)CC2)cc1`: the GTP binding activity (percent of control) is inactive: 97%.
Next, `CN1CCN(CCOC(=O)C(O)(c2ccccc2)c2ccccc2)CC1`: inactive: 104%; `O=C(NCC1(N2CCOCC2)CCCCC1)c1cc(=O)[nH]c2ccccc12`: inactive: 102%.
For `O=C(NCC1(N2CCCCC2)CCCCC1)c1cccc([N+](=O)[O-])c1`, the GTP binding activity (percent of control) is inactive: 97%.
Next, `N#CC1(Nc2ccccc2)CCN(CCc2ccccc2)CC1`: inactive: 105%.
The figure for `COc1ccc(CN(CCCl)CCCl)cc1Cl` is inactive: 97%; for `CN(C)c1cccc(C(=O)NCC2(N3CCCCC3)CCCCC2)c1` it is inactive: 103%.
Next, `CC(C)c1ccc(NC2CCN(C(=O)OC(C)(C)C)CC2)cc1`: inactive: 97%.
`O=C(OC1CN2CCC1CC2)C1c2ccccc2C=Cc2ccccc21` (centres undefined): the GTP binding activity (percent of control) is inactive: 104%.
In the case of `N/C(=N\O)c1c(N)no[n+]1[O-]`, the GTP binding activity (percent of control) is inactive: 93%.
For `COc1ccc(C(=O)NCC2(N3CCOCC3)CCCCC2)cc1OC`, the GTP binding activity (percent of control) was inactive: 98%.
The figure for `c1ccc(CN2CCC(Nc3ccccc3)CC2)cc1` is inactive: 95%.
Consider `N#Cc1ccc(C(=O)NCC2(N3CCCCC3)CCCCC2)cc1`, for which the GTP binding activity (percent of control) was inactive: 105%.
In the case of `CN(C)c1ccc(C(=O)NCC2(N3CCCCC3)CCCCC2)cc1`, the GTP binding activity (percent of control) was inactive: 103%.
In the case of `CCN1CCC(Nc2cccc(F)c2)CC1`, the GTP binding activity (percent of control) was inactive: 98%.
Turning to `Fc1ccccc1NC1CCN(Cc2ccccc2)CC1`, the GTP binding activity (percent of control) was inactive: 103%.
The figure for `COc1cc(OC)cc(C(=O)NCC2(N3CCOCC3)CCCCC2)c1` is inactive: 92%.
`CC(C)(C)OC(=O)N1CCC(Nc2ccccc2)CC1`: the GTP binding activity (percent of control) is inactive: 99%.
Regarding `CCOc1ncccc1C(=O)NCC1(N2CCOCC2)CCCCC1`, the GTP binding activity (percent of control) is inactive: 100%.
